The record followed here is patent US20250346582A1, “SPLEEN TYROSINE KINASE INHIBITORS AND METHODS OF USE THEREOF” (THE BOARD OF TRUSTEES OF THE UNIVERSITY OF ILLINOIS, priority 2022, published 2025).

Amino acid sequences for entries named in this document (tags omitted). Residues count along the entry.
UniProt Q8WV28, 346-453 limits assumed: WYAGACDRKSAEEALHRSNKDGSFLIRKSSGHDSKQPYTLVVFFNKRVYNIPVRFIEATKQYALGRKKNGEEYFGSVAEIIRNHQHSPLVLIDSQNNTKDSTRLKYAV
UniProt P16885, 646-735 limits assumed: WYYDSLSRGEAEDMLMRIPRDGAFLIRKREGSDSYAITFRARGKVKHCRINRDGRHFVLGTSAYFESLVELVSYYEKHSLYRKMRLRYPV

One test addresses Syk-cSH2 (Homo sapiens, UniProt P43405). Put plainly: Fluorescence quenching vesicle binding assay, Syk-cSH2. Here is the method:
(§1) The membrane-binding assay is based on fluorescence quenching of EGFP fused to a SH2 domain by a dark quencher containing lipid, dabsyl-PE, incorporated in lipid vesicles. The plate reader assay was performed using the Synergy™ Neo spectrofluorometer at 25° C. Nontreated black polystyrene 96-well plates (Corning) were used. Protein (10-50 nM) with the increasing concentration of vesicles with a given lipid composition in 20 mM Tris buffer, pH 7.4, containing 0.16 M NaCl was added to each row of wells and the EGFP fluorescence emission at 516 nm was measured with excitation set at 485 nm. Z′ factor for the assay system was determined as described^74. Imax and IC50 values of inhibitors were determined using the equation, I=Imax/(1+IC50/[I]) where I and [I] indicate % inhibition and inhibitor concentration, respectively. The average and standard deviation values were obtained from triplicate determinations.
We also optimized a recently developed fluorescence quenching-based lipid-binding assay^47 for high-throughput screening of these molecules for their inhibitory activity against the PIP3-SH2 interaction. Specifically, we expressed SH2 domains as EGFP-tagged proteins and directly quantified their membrane binding by monitoring the quenching of EGFP fluorescence emission intensity by a dark quencher-containing lipid, N-dimethylaminoazo-benzenesulfonyl-phosphatidylethanolamine (dabsyl-PE), incorporated in the vesicles. We then screened for compounds that inhibited binding of Syk-cSH2, BLNK-SH2, and PLCγ2-cSH2, respectively, to 1-palmitoyl-2-oleoyl-PC (POPC)/1-palmitoyl-2-oleoyl-PS (POPS)/PIP3/dabsyl-PE (67:20:3:10) vesicles while eliminating those that inhibit their non-specific binding to anionic POPC/POPS/dabsyl-PE (70:20:10) vesicles. The quality of the screening system was evaluated using 1% dimethylsulfoxide (DMSO) and 20 μM D-myo-inositol-1,3,4,5-tetraphosphate (IP4) as negative and positive controls, respectively. The clear separation of positive and negative control data and the average Z′-factor of 0.7 supported the robustness of our system for high-throughput screen of PIP3-SH2 interaction inhibitors.

The target in another test is BLNK-SH2 (Homo sapiens, UniProt Q8WV28). Put plainly: Fluorescence quenching vesicle binding assay, BLNK-SH2. Conditions: Table 2; BLNK-SH2 binding to POPC/POPS/PIP3/dabsyl-PE vesicles. Here is the method: as §1, with “The average and standard deviation values were obtained from triplicate determinations.” left out
(§2) We also optimized a recently developed fluorescence quenching-based lipid-binding assay^47 for high-throughput screening of these molecules for their inhibitory activity against the PIP3-SH2 interaction. Specifically, we expressed SH2 domains as EGFP-tagged proteins and directly quantified their membrane binding by monitoring the quenching of EGFP fluorescence emission intensity by a dark quencher-containing lipid, N-dimethylaminoazo-benzenesulfonyl-phosphatidylethanolamine (dabsyl-PE), incorporated in the vesicles. […]

A further test deals with PLCγ2-cSH2 (Homo sapiens, UniProt P16885). Description: Fluorescence quenching vesicle binding assay, PLCγ2-cSH2. To be noted: Table 2; PLCγ2-cSH2 binding to POPC/POPS/PIP3/dabsyl-PE vesicles. The protocol: as §1, with “The average and standard deviation values were obtained from triplicate determinations.” left out
as §2

Test [1] has as its system BCR signaling axis (Syk-BLNK-PLCγ2). Description: Western blot of BCR signaling axis in Raji B lymphocytes. To be noted: Raji B cells. Here is the method: Cells were seeded at a density of 3.0×10^5 cells/well prior to incubation with inhibitors. Cells were incubated with 1-5 μM of Syk inhibitors overnight and stimulated with different antibodies: IgG2 for AML cells, IgM for Raji B cells, and OKT3 (Biolegend) for Jurkat cells. The cells were lysed in NP40 lysis buffer (50 mM Tris, pH 7.5, 150 mM NaCl, 1 mM EDTA, 1% NP40, 10% glycerol, 10 mM NaF, 10 mM Na3VO4, and the protease inhibitor cocktail) at 4° C. and the cell debris was removed by centrifugation. Samples were analyzed by SDS-PAGE. Proteins were separated and transferred to Immobilon-P polyvinylidene difluoride membrane (Millipore Sigma). The membrane was blocked with 5% bovine serum albumin for 1 h and incubated overnight at 4° C. with various antibodies (1:1000 dilution for all antibodies). After the unbound antibodies were removed by washing with 0.1% Tris buffer saline with 0.1% Tween20, the membranes were incubated with the horseradish peroxidase secondary antibody (1:5000 dilution) for 1 h at room temperature. The membranes were washed three more times with 0.1% Tris buffer saline with 0.1% Tween20 to remove the unbound horseradish peroxidase secondary antibody before imaging. The chemiluminescence intensity of protein bands in the gel was analyzed and documented by the Azure 500Q Imaging System.
(In general: In western blotting, separated proteins are transferred to a membrane and probed.)

Where [2] appears, read: Table 2, Syk-cSH2 binding to POPC/POPS/PIP3/dabsyl-PE vesicles.
The mark [3] stands for this setting: Table 3, efficacy determined by the vesicle binding assay.

Each structure is given as a SMILES string. Values joined by “and” are separate entries in the source; they are usually repeats but may differ in a detail not shown here. Equal values may be shown once.

For orientation: IC50 means the concentration at which inhibition is half-maximal. For `Cc1ccc(C(Nc2ncccn2)C(=[N+]=[N-])C(=O)OC2CCCCC2)cc1` (stereo not shown), the IC50 on Syk-cSH2 (setting [2]) was 500 nM and 350 nM; on Syk-cSH2 (setting [3]), 500 nM. The “Imax (%)” value was 40-50% and 40 ± 5% on Syk-cSH2 (setting [2]); “Imax (%) = 40” on Syk-cSH2 (setting [3]); less than 10% on BLNK-SH2; less than 10% on PLCγ2-cSH2. Besides, the “effect on phosphorylation of BCR signaling proteins (Syk, BLNK, PLCγ2)” value in test [1] was “suppressed phosphorylation of Syk (pY525/pY526), BLNK (pY96) and PLCγ2 (pY759)”.
